Assay results: publication PMC4619679

Target: T1, Full-length human Dnmt1 (human), P26358
T1 chain: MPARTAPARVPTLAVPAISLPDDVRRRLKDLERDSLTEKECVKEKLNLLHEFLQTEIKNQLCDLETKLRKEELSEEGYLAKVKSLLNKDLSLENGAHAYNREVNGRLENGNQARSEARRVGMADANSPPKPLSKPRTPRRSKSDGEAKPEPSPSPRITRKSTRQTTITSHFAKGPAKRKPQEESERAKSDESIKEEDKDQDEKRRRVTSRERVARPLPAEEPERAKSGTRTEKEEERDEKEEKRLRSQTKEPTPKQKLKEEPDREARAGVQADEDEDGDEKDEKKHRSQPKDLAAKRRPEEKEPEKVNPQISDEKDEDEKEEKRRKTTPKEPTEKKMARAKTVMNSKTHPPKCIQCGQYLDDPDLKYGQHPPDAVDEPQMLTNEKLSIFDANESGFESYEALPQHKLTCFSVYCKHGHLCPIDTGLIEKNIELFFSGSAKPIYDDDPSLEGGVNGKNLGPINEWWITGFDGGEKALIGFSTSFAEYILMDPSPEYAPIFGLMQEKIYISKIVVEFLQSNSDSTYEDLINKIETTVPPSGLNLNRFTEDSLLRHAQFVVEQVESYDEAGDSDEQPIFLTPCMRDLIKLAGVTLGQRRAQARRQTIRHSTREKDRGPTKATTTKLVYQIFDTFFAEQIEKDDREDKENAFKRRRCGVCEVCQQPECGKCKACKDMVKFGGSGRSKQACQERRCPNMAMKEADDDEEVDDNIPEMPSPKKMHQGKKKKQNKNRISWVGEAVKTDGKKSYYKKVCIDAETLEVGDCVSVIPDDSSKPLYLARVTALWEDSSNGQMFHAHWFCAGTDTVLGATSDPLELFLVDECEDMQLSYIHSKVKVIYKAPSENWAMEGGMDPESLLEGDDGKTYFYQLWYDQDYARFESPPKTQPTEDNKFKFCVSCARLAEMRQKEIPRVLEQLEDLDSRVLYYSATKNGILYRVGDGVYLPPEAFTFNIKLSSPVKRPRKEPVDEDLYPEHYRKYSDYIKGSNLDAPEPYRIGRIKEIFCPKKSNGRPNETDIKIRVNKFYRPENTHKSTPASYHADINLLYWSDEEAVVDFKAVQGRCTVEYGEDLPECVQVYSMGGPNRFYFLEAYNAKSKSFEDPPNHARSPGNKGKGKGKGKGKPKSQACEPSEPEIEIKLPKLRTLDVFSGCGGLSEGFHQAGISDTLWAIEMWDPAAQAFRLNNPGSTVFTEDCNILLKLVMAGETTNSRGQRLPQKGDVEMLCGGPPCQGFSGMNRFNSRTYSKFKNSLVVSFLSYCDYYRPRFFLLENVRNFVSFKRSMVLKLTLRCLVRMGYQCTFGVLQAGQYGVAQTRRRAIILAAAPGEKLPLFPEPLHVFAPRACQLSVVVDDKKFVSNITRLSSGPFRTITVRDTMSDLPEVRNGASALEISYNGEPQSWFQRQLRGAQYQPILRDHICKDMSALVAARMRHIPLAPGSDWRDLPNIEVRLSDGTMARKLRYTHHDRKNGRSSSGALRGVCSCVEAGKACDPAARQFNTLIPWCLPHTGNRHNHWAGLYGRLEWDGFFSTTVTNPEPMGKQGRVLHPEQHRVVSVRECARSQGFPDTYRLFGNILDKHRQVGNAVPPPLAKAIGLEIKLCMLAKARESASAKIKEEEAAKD
Assay: SEC; gelfiltration chromatography of recombinant Dnmt1 under different running conditions; compared with Dnmt1 denatured by SDS and heat, which gave forms of the apparent mass of a monomer
Details: remark: other sources report otherwise

stoichiometry N: 2
B1: Full-length human Dnmt1, P26358 1-1616 (enzyme)
chain: T1 chain
